In US20060040390A1, “Device, method, system, and program for intelligent in vivo cell-level chemical or genetic material delivery” (priority 2004, published 2006):

Tested on: mouse fibroblasts which do not express IGF-R receptors
Test: Selectivity of Doxorubicin-alphaIR3 on mouse fibroblasts without IGF-R

## COc1cccc2c1C(=O)c1c(O)c3c(c(O)c1C2=O)C[C@@](O)(C(=O)CO)C[C@@H]3O[C@H]1C[C@H](N)[C@H](O)[C@H](C)O1 [Doxorubicin]
  cytotoxicity on fibroblasts which do not express IGF-R: dose-dependent cytotoxicity
